Data on one compound can be found in US11471507B2, “HMGB1 antagonist” (THE FEINSTEIN INSTITUTES FOR MEDICAL RESEARCH, priority 2019, dated 2022).

Series [1] can be described thus: in vitro. To be noted: mouse, serum.
Series [2] can be described thus: in vitro. To be noted: rat.

What is called half-life is the time in which the quantity being followed falls by half. A low value points to fast loss.

As for `NC(=O)[C@H](CCC(=O)O)NC(=O)[C@H](CO)NC(=O)[C@H](CO)NC(=O)[C@@H](N)Cc1ccccc1` [P5779], the half-life at 100 μg in “in vitro [1]” was 60 min. Further, the figures for the half-life in the series “in vitro [2]” (blood) and in “in vitro [2]” (plasma) were 13 min and 12 min, respectively.
